Measurements from ChEMBL document CHEMBL6127109, “mARC1 Is the Main Contributor to Metabolic Reduction of N-Hydroxyurea” (J Med Chem, 2024).

B1: Mitochondrial amidoxime-reducing component 1 (Homo sapiens), Q5VT66 (protein)
chain: MGAAGSSALARFVLLAQSRPGWLGVAALGLTAVALGAVAWRRAWPTRRRRLLQQVGTVAQLWIYPVKSCKGVPVSEAECTAMGLRSGNLRDRFWLVINQEGNMVTARQEPRLVLISLTCDGDTLTLSAAYTKDLLLPIKTPTTNAVHKCRVHGLEIEGRDCGEATAQWITSFLKSQPYRLVHFEPHMRPRRPHQIADLFRPKDQIAYSDTSPFLILSEASLADLNSRLEKKVKATNFRPNIVISGCDVYAEDSWDELLIGDVELKRVMACSRCILTTVDPDTGVMSRKEPLETLKSYRQCDPSERKLYGKSPLFGQYFVLENPGTIKVGDPVYLLGQ
B2: Mitochondrial amidoxime reducing component 2 (Homo sapiens), Q969Z3 (protein)
chain: MGASSSSALARLGLPARPWPRWLGVAALGLAAVALGTVAWRRAWPRRRRRLQQVGTVAKLWIYPVKSCKGVPVSEAECTAMGLRSGNLRDRFWLVIKEDGHMVTARQEPRLVLISIIYENNCLIFRAPDMDQLVLPSKQPSSNKLHNCRIFGLDIKGRDCGNEAAKWFTNFLKTEAYRLVQFETNMKGRTSRKLLPTLDQNFQVAYPDYCPLLIMTDASLVDLNTRMEKKMKMENFRPNIVVTGCDAFEEDTWDELLIGSVEVKKVMACPRCILTTVDPDTGVIDRKQPLDTLKSYRLCDPSERELYKLSPLFGIYYSVEKIGSLRVGDPVYRMV

Key:
[1] = substrate: NC(=O)NO; test: Binding affinity to human recombinant mARC1 extracted from Escherichia coli assessed as Vmax by Michaelis-menten based analysis
[2] = substrate: NC(=O)NO; test: Binding affinity to human recombinant mARC2 extracted from Escherichia coli assessed as Vmax by Michaelis-menten based analysis

Protein	Vmax [1]	Vmax [2]
B1	490 nmol/mg/min	
B2		248 nmol/mg/min
